Data: paper PMC7363590 (Cancer cell, 2020)

By UniProt entry, the sequences of proteins in these tests, tags left out. Residues count along the entry.
UniProt Q9C0B1, 32-505: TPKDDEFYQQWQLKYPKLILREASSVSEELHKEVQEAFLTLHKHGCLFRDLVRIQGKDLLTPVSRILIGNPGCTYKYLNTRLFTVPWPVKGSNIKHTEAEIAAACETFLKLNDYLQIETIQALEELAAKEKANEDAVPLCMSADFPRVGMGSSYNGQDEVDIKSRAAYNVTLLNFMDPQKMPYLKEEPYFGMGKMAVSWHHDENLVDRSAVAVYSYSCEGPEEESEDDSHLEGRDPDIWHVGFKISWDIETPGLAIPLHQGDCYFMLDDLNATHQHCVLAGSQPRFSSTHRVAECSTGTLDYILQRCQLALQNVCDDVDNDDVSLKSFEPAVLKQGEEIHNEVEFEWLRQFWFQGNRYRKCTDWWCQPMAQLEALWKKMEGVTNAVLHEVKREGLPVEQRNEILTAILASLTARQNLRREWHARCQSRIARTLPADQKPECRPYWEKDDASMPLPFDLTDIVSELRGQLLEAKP

Molecular target: FTO (fat mass and obesity-associated protein) (Homo sapiens, UniProt Q9C0B1)

## Cc1c(-c2ccc(-c3ccccc3F)cc2)nc2ccc(F)cc2c1C(=O)O [CS2, Brequinar]
  IC50: both CS1 and CS2 efficiently suppressed m^6A demethylase activity of FTO, with IC50 values in nanomolar range
